# AlphaSeq binding of Ab-91 heavy chain variants to a spike HR2 peptide

Target: peptide PDVDLGDISGINAS, taken from heptad repeat 2 (HR2) of SARS-CoV-2 spike.

Parent scFv Ab-91: VL joined to VH by a 15-residue (Gly4Ser)3 linker. Changes lie in the heavy chain CDRs alone.
VL: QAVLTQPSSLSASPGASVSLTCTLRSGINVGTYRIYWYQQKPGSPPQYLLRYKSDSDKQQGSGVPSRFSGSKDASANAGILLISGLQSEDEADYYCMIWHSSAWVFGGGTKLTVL
VH: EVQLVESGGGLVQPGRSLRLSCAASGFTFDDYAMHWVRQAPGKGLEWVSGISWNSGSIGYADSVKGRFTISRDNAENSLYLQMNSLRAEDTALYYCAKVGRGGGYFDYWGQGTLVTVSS

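The starting antibody came from a phage panning campaign against this peptide. Library AAYL51 holds single substitutions and randomly drawn double and triple substitutions in the CDRs. In AlphaSeq, yeast of one mating type display the scFv and yeast of the other type display the target. Pairs that bind mate more often; barcode pairs of the diploids are counted by sequencing. Scores were corrected for input abundance and mapped to Kd with protein pairs of known affinity run in the same pool. Each pool was mated in three replicate cultures.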

Changes read parent residue, position, new residue, counted from the first residue of the VH shown.
Scale: log10 of Kd in nM, estimated from mating counts; low values are strong binders.
A pair that was not seen in that replicate is written "nd"; this usually means weak binding, but a binder can also be missed.
Nonspecific signal, from three strains lacking the peptide, appeared in 21% of pairings of library AAYL51, centred on 4.54 (5% of these signals below 3.26); values are not corrected for it. Also given: how often the same scFv was detected with the empty control strains, with their mean in brackets.

| # | changes | log10 Kd, replicates | control signals |
|---|---|---|---|
| 1 | D31M/V99N/R101S | 2.42 2.54 2.50 | 5 of 9 (4.85) |
| 2 | A61V/G103W | 3.87 4.16 4.22 | 8 of 9 (4.79) |
| 3 | N54K/V64R/F106E | 4.91 6.35 nd | 8 of 9 (5.08) |
| 4 | H35Q/G50F/G59A | 3.64 nd nd | 0 of 9 |
| 5 | H35C/A61V/G104W | nd nd nd | 0 of 9 |
| 6 | G104A/Y105W | 1.41 1.32 0.92 | 5 of 9 (5.56) |
| 7 | F27L/T28H/A33P | 4.53 nd nd | 2 of 9 (4.36) |
| 8 | Y32T/Y60R/Y105R | 3.29 nd nd | 0 of 9 |
| 9 | F27L/W53F/G100T | 4.80 3.91 5.91 | 4 of 9 (4.45) |
| 10 | G102S/G103P/G104V | 3.12 3.21 2.93 | 6 of 9 (5.33) |
| 11 | F29N/N54L/D107C | nd nd nd | 2 of 9 (3.77) |
| 12 | W53P/Y60W/K65M | nd nd nd | 0 of 9 |
| 13 | T28N/W53N/D107R | nd nd nd | 0 of 9 |
| 14 | F106Y/D107R | nd nd nd | 0 of 9 |
| 15 | H35A/K65W/F106A | nd 5.54 4.56 | 0 of 9 |
| 16 | D30R/S63M/Y108G | 0.80 0.81 0.04 | 7 of 9 (5.00) |
| 17 | A33C/S63W/G102E | nd nd nd | 0 of 9 |
| 18 | G26W/A61R/G104V | nd nd nd | 0 of 9 |
| 19 | T28Q/S57R/G102C | nd nd nd | 1 of 9 (4.26) |
| 20 | V99I/G104M | 2.74 3.26 2.97 | 5 of 9 (4.61) |
| 21 | F27H/S55M/S63M | nd 5.52 nd | 0 of 9 |
| 22 | D30C/K65N/G104T | 4.85 nd nd | 2 of 9 (4.98) |
| 23 | F29G/H35K/W53L | nd nd nd | 7 of 9 (4.80) |
| 24 | H35T/G50E/D107G | nd nd nd | 0 of 9 |
| 25 | R101C/G104V/D107R | nd 5.56 nd | 3 of 9 (4.10) |
| 26 | F29L/D30T/V64M | nd nd nd | 2 of 9 (3.72) |
| 27 | S55P/I58M/G100V | nd nd nd | 1 of 9 (4.22) |
| 28 | F27Q/A61L/G104N | nd nd nd | 0 of 9 |
| 29 | D30M/H35L/G56A | 5.31 nd nd | 3 of 9 (4.32) |
| 30 | G26M/G102D/Y105G | nd nd 4.25 | 3 of 9 (4.45) |
| 31 | S52G/G59F | nd nd nd | 2 of 9 (4.07) |
| 32 | I51Q/G56Y/Y60V | nd nd nd | 2 of 9 (3.95) |
| 33 | A33R/G50S/G59L | nd 5.23 nd | 2 of 9 (3.67) |
| 34 | S63G/V99I/Y108K | 0.44 0.37 -0.30 | 5 of 9 (4.70) |
| 35 | G59L/Y60T | 4.31 nd nd | 3 of 9 (3.58) |
| 36 | W53E/V64L/R101E | 3.58 5.58 nd | 3 of 9 (4.24) |
| 37 | I51C/D62S/Y108N | nd 4.62 nd | 2 of 9 (5.12) |
| 38 | Y32E/A61M/V99T | nd 4.08 nd | 0 of 9 |
| 39 | D30S/S63A/V64Y | 3.83 3.96 3.00 | 1 of 9 (5.35) |
| 40 | V64C/R101P/Y105E | 3.04 2.44 2.66 | 4 of 9 (4.55) |
| 41 | H35V/I58T/G104V | 4.95 nd nd | 3 of 9 (4.15) |
| 42 | G59D/V64P/G103T | nd nd nd | 1 of 9 (4.67) |
| 43 | S55Y/S63W/F106Y | 5.64 4.20 nd | 1 of 9 (4.87) |
| 44 | F29Q/A33M/M34H | nd nd nd | 3 of 9 (4.12) |
| 45 | G50F/G56M/Y108M | nd nd nd | 0 of 9 |

The first 3 variants above that were never detected:

{"changes": "H35C/A61V/G104W", "log10 Kd, replicates": "nd nd nd", "control signals": "0 of 9"}
{"changes": "F29N/N54L/D107C", "log10 Kd, replicates": "nd nd nd", "control signals": "2 of 9 (3.77)"}
{"changes": "W53P/Y60W/K65M", "log10 Kd, replicates": "nd nd nd", "control signals": "0 of 9"}

Source: Engelhart et al. 2022 (doi:10.1038/s41597-022-01779-4), MIT Lincoln Laboratory and A-Alpha Bio; data file from the FLAb repository.